Results from patent publication US8785486B2, “Imidazo[1,2-A]pyridine derivatives and their use as positive allosteric modulators of mGluR2 receptors” (Janssen Pharmaceuticals, Inc., priority 2007, dated 2014).

Amino acid sequences for entries named in this document (tags omitted). Residues count along the entry.
UniProt Q14416, 19-872 limits assumed: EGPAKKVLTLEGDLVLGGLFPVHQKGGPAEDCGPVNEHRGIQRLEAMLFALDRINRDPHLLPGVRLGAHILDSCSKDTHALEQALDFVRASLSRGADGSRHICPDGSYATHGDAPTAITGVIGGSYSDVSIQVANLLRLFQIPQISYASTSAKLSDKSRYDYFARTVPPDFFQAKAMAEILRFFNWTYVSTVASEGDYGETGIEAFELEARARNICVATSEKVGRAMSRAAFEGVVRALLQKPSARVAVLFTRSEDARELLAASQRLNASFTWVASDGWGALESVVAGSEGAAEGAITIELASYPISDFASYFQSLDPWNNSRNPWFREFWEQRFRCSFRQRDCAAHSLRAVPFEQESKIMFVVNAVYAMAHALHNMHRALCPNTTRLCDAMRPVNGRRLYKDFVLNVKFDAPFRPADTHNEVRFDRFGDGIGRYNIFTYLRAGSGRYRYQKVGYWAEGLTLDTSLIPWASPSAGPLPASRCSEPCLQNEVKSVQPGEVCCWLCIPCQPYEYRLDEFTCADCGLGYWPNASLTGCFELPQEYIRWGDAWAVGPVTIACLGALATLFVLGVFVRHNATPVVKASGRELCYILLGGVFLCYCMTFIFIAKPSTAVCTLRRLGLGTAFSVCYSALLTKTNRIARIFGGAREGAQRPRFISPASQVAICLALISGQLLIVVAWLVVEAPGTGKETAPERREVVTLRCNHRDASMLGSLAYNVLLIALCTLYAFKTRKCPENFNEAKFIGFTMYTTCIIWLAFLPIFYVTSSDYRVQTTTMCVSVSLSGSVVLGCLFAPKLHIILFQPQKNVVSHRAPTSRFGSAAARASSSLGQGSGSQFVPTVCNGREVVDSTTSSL

Target: human mGluR2 receptor (Homo sapiens, UniProt Q14416)
Experiment: [35S]GTPγS binding assay (PAM assay) using membranes from cells transfected with the human mGluR2 receptor
Conditions: membranes of CHO cells with human mGluR2; glutamate at predetermined EC25 concentration; averages of duplicate values of 11-concentration response curves

GTPγS - hR2 PAM pEC50: 5.87
SMILES: N#Cc1c(-c2ccc(NC3CCC(O)CC3)cc2)ccn2c(CC(F)(F)F)cnc12 (stereo not shown)
